Laboratory results reported in US7166588B2 (priority 2000, dated 2007).

By UniProt entry, the sequences of proteins in these tests, tags left out. Residues count along the entry.
UniProt P22303, 32-614 limits assumed: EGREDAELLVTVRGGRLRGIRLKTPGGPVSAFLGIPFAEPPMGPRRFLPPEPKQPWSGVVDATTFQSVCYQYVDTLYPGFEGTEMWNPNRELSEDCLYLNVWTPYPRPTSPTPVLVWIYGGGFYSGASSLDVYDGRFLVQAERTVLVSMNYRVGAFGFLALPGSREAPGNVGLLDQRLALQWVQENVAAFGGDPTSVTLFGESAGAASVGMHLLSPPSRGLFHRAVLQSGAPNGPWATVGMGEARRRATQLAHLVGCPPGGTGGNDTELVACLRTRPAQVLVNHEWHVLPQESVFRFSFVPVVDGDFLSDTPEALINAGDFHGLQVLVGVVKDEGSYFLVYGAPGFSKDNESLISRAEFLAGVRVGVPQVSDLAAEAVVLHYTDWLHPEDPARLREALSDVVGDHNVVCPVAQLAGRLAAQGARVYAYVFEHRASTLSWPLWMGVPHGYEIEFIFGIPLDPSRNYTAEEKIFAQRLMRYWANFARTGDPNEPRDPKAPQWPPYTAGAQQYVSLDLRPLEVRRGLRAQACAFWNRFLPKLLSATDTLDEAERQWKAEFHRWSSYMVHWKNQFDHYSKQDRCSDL

Target: acetylcholinesterase (AChE), human recombinant (Homo sapiens, UniProt P22303)
Test: biochemical
Settings: human recombinant enzyme; pre-incubation of the enzyme with inhibitor; read-out: IC50 (AChE, mE, hr)

COc1ccc2c3c1O[C@@H]1CC(O)C=CC31CCC(C)C2 (stereo partly shown) [SPH-1310]
IC50: 5.3 µM
